Experimental data reported in patent US20230165967A1.

Biological target: recombinant human soluble ECD of CD64/FCGRIA (human) (UniProt P12314)
Test: ELISA: plate coated with recombinant human CD64/FCGRIA ECD, antibody titrated, HRP goat anti-human Fc, OD650

Row | Substance | EC50 (read off the curve) [µg/mL]
1 | Anti-EGFR Ab No. 2 L234A, L235A (antibody; other documents disagree on this pair) | 4
2 | Anti-EGFR Ab No. 2 Wild Type (antibody; other documents disagree on this pair) | 0.04
